According to patent US8853146B2, “Hapten compounds and compositions and uses thereof” (The Board of Trustees of the University of Arkansas, priority 2007, dated 2014):

How the values were obtained:
mAb4G9 = assay: RIA cross-reactivity profile, inhibition of [3H]-(+)METH binding to mAb4G9; parameters: species or system mouse; conditions: RIA IC50 value for METH/RIA IC50 value for test ligand
mAb6H4 = assay: RIA cross-reactivity profile, inhibition of [3H]-(+)METH binding to mAb6H4; parameters: species or system mouse; conditions: RIA IC50 value for METH/RIA IC50 value for test ligand
mAb6H8 = assay: RIA cross-reactivity profile, inhibition of [3H]-(+)METH binding to mAb6H8; parameters: species or system mouse; conditions: RIA IC50 value for METH/RIA IC50 value for test ligand
rats = assay: (+)METH brain concentrations in rat overdose and mAb pretreatment models; type: in vivo; conditions: 1 mg/kg iv, without mAb
Experimental: The overdose model was designed to mimic a drug abuser taking a high iv (+)METH dose and treated with (+)METH mAb in the emergency room. In this model, rats received 1 mg/kg (+)METH (iv) followed 30 min later by an anti-(+)METH mAb dose. The mAb pretreatment model was designed to mimic an abuser in drug treatment administered an anti-(+)METH mAb medication at the start of behavioral modification therapy who relapses to (+)METH use. In this model, rats were pretreated with anti-(+)METH mAb6H4 and received a 1 mg/kg iv (+)METH dose the following day. This dose (without mAb) produced about 2.5 hrs of locomotor effects. Rats (3/time point) were sacrificed at varied times after (+)METH administration to determine (+)METH brain concentrations.

(+)-methamphetamine [(+)METH]
Antibody Specificity (Relative Potency to METH), mAb4G9 (mAb4G9): 1.00
Antibody Specificity (Relative Potency to METH), mAb6H4 (mAb6H4): 1.00
Antibody Specificity (Relative Potency to METH), mAb6H8 (mAb6H8): 1.00
duration of locomotor effects (rats): about 2.5 hrs
